Data on 64 compounds can be found in PubChem BioAssay AID588664 (The Scripps Research Institute Molecular Screening Center, 2011).

The chains behind the UniProt entries cited, without tags or fusion partners. Where a name states a change or a piece, a line headed by the entry shows the natural chain unless it says otherwise.
UniProt P00519, whole entry, looked up: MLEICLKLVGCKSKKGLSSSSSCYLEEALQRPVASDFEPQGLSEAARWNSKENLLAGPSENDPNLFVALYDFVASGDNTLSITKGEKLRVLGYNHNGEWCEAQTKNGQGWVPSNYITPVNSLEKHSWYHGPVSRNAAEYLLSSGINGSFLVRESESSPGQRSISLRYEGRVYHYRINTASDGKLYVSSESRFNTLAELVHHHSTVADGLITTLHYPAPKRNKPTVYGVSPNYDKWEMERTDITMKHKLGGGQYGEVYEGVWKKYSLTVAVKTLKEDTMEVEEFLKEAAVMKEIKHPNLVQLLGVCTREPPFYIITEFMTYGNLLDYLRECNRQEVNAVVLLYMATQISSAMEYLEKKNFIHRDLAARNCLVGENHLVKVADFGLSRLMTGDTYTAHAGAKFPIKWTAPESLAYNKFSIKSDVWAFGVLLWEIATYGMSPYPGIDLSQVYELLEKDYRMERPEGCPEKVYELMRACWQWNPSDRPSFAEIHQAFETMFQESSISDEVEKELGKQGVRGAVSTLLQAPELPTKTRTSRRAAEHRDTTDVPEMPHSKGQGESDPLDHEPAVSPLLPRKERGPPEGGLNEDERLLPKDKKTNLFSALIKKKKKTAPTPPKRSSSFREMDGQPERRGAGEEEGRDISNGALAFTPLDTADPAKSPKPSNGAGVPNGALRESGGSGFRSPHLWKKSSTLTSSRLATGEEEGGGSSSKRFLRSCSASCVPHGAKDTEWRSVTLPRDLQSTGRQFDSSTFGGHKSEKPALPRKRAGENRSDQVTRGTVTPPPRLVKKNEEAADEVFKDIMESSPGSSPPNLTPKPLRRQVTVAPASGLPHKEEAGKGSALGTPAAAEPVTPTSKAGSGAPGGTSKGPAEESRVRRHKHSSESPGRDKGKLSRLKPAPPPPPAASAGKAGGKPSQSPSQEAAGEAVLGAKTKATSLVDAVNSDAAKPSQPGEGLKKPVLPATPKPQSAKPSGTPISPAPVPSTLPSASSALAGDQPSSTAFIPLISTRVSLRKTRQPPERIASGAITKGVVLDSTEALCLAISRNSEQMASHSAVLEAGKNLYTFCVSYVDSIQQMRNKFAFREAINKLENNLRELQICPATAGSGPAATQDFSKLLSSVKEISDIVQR
UniProt Q13671: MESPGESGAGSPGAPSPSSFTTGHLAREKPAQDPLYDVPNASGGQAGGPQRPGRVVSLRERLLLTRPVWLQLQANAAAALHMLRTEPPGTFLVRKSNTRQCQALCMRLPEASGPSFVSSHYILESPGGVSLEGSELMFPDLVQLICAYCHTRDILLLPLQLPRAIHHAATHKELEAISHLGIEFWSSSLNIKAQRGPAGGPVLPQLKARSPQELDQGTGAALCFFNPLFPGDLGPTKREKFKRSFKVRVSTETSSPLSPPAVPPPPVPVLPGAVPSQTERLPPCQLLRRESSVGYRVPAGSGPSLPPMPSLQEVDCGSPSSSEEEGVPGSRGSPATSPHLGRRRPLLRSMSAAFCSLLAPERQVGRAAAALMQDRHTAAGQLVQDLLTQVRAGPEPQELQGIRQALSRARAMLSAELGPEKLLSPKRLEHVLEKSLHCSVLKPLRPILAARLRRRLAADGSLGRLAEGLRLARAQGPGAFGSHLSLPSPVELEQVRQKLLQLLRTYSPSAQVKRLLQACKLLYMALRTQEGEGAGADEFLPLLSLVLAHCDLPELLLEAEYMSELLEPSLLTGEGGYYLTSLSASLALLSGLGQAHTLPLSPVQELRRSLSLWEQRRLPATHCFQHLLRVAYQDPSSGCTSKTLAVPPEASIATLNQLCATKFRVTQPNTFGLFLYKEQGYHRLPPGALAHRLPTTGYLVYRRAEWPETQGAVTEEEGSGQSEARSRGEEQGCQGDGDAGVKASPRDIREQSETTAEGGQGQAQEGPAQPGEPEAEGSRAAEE

Structures are written as SMILES. The list shows a part of the results, in another mix than the full data. The source made the active and inactive calls. No stated cut-off is given here; in the data, active means inhibition above about 5% (passing the limit was not always enough); inactive means the rest.

This assay deals with Tyrosine-protein kinase ABL1 (Homo sapiens) + Ras and Rab interactor 1 (Homo sapiens) (UniProt P00519+Q13671). Nature of the assay: inhibitors of Rin1-Abl protein binding, primary screen, biochemical, TR-FRET (AID 588664). As to conditions: at 7.35 µM, active compounds read high. In general terms: In TR-FRET formats the signal depends on donor and acceptor labels being close together.
The inhibition is the relative decrease from the control value, in per cent. In the case of `O=C(O)CNc1ccc([As](=O)(O)O)cc1`, the inhibition is inactive: 0.76%.
With `O=[N+]([O-])c1cccc(NC2=NCC(CBr)S2)c1` (centres undefined), the inhibition was inactive: 0.2%.
The value for `COC(=O)C1(C)COP(=O)(Nc2ccccc2)OC1` (centres undefined) was inactive: 1.95%; that for `O=[N+]([O-])c1ncn(CCn2ncnc2[N+](=O)[O-])n1` was inactive: -0.02%; that for `CC(C)(C)C(=O)NC(Sc1ccncn1)C(Cl)(Cl)Cl` (centres undefined) was inactive: 1.08%.
With `O=C(Nc1cc([As](=O)(O)O)ccc1O)c1ccccc1`, the inhibition was inactive: 2.27%.
The value for `O=P1(N(CCCl)CCCl)OCCCS1` (centres undefined) was inactive: 0.35%; that for `c1cc(-c2nn[nH]n2)ccc1-c1nn[nH]n1` was inactive: -2.6%.
On to `CC1CCN(C(=O)Oc2c(Cl)cc(Cl)c3cccnc23)CC1`, for which the inhibition was inactive: -2.72%.
The value for `CN(C)C(=O)OCCc1n(C)cc[n+]1C` was inactive: -0.92%; that for `CC(C)=N/N=C(\N)N[N+](=O)[O-]` was inactive: 0.84%; that for `CC(C)c1nc(Nc2ccccc2)n(P(=O)(N(C)C)N(C)C)n1` was inactive: -1.74%.
For `CCN(/C(=N/P(=O)(N1CCOCC1)N1CCOCC1)N1CCOCC1)c1ccc(OC)cc1` the value was inactive: 0.07%; for `C[N+]1=C2C=CC=CC=C2SC12C([N+](=O)[O-])=CC([N+](=O)[O-])=C[C-]2[N+](=O)[O-]` (centres undefined), inactive: 4.21%; for `Nc1ccc([As](=O)(O)c2ccc(N)cc2)cc1`, inactive: 1.99%.
The value for `CCc1nc2c(n1)c1c(non1O)c1c2no[n+]1[O-]` was inactive: -5.14%.
For the compound `O=[N+]([O-])c1cc([N+](=O)[O-])c(CCNc2ccccc2)c([N+](=O)[O-])c1`, the inhibition is inactive: 1.61%.
The value for `Cc1ccc(NP(=O)(Oc2ccccc2)Oc2ccccc2)nc1` was inactive: -4.57%; that for `O=[N+]([O-])c1cccc2n[nH]nc12` was inactive: -2.3%.
For `CC(=O)N1C2C3N(C(C)=O)C1C1N(C(C)=O)C(C(N1C(C)=O)N3C(C)=O)N2C(C)=O` the value was inactive: 0.7%; for `COc1ccc(C2=NCC(CBr)S2)cc1` (centres undefined), inactive: 2.95%; for `O=[N+]([O-])C1C(O)C(O)C([N+](=O)[O-])C(O)C1O` (centres undefined), inactive: 2.62%.
The value for `O=C(NC(Sc1ccncn1)C(Cl)(Cl)Cl)c1ccccc1` (centres undefined) was inactive: -2.23%; that for `Oc1ccccc1CNc1ccccn1` was inactive: 1.54%.
As to `CC(C)CC(=O)NC(Sc1ccc(Cl)cc1)C(Cl)(Cl)Cl` (centres undefined), the inhibition is inactive: 2.03%.
For `Nc1cc(N)c2nonc2c1[N+](=O)[O-]` the value was inactive: -6.44%; for `Clc1ccc(Cl)c(NC2=NCC(CBr)S2)c1` (centres undefined), inactive: 1.63%; for `CN1CCCC(OC(=O)C(c2ccccc2)c2ccccc2)C1` (centres undefined), inactive: -4.93%.
On to `Cc1ccc(OP(=O)(Nc2nccs2)Oc2ccc(C)cc2)cc1`, for which the inhibition is inactive: 5.36%.
For `COc1ccccc1OP(=O)(Nc1ccc(C)cn1)Oc1ccccc1OC` the value was inactive: -0.89%.
For `Cc1ccc(N/C(=N/P(=O)(N2CCOCC2)N2CCOCC2)N2CCOCC2)cc1` the value was inactive: 1.41%; for `CN(C(=O)Cc1ccc(Cl)c(Cl)c1)[C@H]1CCCC[C@H]1N1CCCC1`, inactive: -0.48%; for `NC(=O)c1cc([N+](=O)[O-])cc([N+](=O)[O-])c1N`, inactive: 3.34%.
For `Nc1cccc2ccc([As](=O)(O)O)cc12` the value was inactive: -2.29%.
For `CCN(N=Nc1nonc1N)c1nonc1N`, the inhibition was inactive: -0.08%.
For `Cc1ccc(NP(=O)(Oc2ccccc2F)Oc2ccccc2F)nc1` the value was inactive: -0.36%; for `CN(C(=O)Cc1ccc(Cl)c(Cl)c1)[C@H]1CCCC[C@@H]1N1CCCC1`, inactive: -1.08%; for `CCOP(=O)(Nc1ccccc1)OCC`, inactive: -1.48%.
For `Cc1cc(SC(NC(=O)c2ccc(F)cc2)C(Cl)(Cl)Cl)ncn1` (centres undefined) the value was inactive: -0.59%.
The value for `CN(C)P(=O)(N(C)C)n1c(Nc2ccccc2)nnc1-c1ccccc1` was inactive: -1.16%.
On to `O=P(Nc1nc2ccc(Cl)cc2s1)(c1ccccc1)c1ccccc1`, for which the inhibition is inactive: -0.86%.
For `CCCC1OP(N)(=O)OCC1CC` (centres undefined) the value was inactive: 0.63%.
For `O=C(O)c1ccccc1[As](=O)(O)O` the value was inactive: 1.13%.
The value for `CC(=O)Nc1ccc([As](=O)(O)O)cc1` was inactive: -1.38%; that for `CN(C)C(=O)Oc1noc2ccccc12` was inactive: -1.25%; that for `O=c1c2cc([N+](=O)[O-])ccc2[nH]c2c([N+](=O)[O-])cc([N+](=O)[O-])cc12` was inactive: -0.05%.
For `Cc1ccccc1OP(=O)(Nc1ccccn1)Oc1ccccc1C`, the inhibition was inactive: -0.67%.
For `CC(NC(=O)COC(=O)C(O)(c1ccccc1)c1ccccc1)c1ccccc1` (centres undefined) the value was inactive: 1.1%.
The value for `CCC(=O)N1C2C3N(C(=O)CC)C1C1N(C(=O)CC)C(C(N1C(=O)CC)N3C(=O)CC)N2C(=O)CC` was inactive: -4.38%.
The value for `O=C(OC1CN2CCC1CC2)c1ccccc1` (centres undefined) was inactive: -0.75%; that for `CC(=O)NC(SC(=S)N(CC(C)C)CC(C)C)C(Cl)(Cl)Cl` (centres undefined) was inactive: -0.51%.
On to `Cc1ccc(OP(=O)(Nc2ccccn2)Oc2ccc(C)cc2)cc1`, for which the inhibition is inactive: 2.42%.
The value for `COC(=O)c1cc2c(s1)N=C(c1ccccc1)N(C)P2(=O)N1CCOCC1` (centres undefined) was inactive: -1.83%.
For `O=P1(N(CCCl)CCCl)OCCC2CCCCN21` (centres undefined) the value was inactive: 1.97%; for `Cc1ccc(NP(=O)(Oc2cccc(C)c2)Oc2cccc(C)c2)nc1`, inactive: -3.41%; for `c1ccc(-c2nn[nH]n2)c(-c2nn[nH]n2)c1`, inactive: 4.12%.
The value for `CCNC(=S)/N=C(\N)N[N+](=O)[O-]` was inactive: 0.76%.
Turning to `O=C(NC1CCS(=O)(=O)C1)NP(=S)(Oc1ccccc1)Oc1ccccc1` (centres undefined), the inhibition is inactive: -0.54%.
`CC(=O)Nc1ccc(Oc2c([N+](=O)[O-])cc([N+](=O)[O-])cc2[N+](=O)[O-])cc1`: the inhibition was inactive: 0.79%.
The value for `CC(=O)Nc1ccc([As](=O)(O)O)c(O)c1` was inactive: -2.54%.
Consider `C[C@@H]1C=CCP(=O)(Oc2ccccc2)O1` (some centres undefined), for which the inhibition was inactive: -0.8%.
The value for `C[C@H]1OP(=O)(Oc2ccccc2)C[C@@H]2O[C@@H]21` (some centres undefined) was inactive: 0.82%.
The value for `Cc1ccccc1CN(C)C(=O)COC(=O)C(O)(c1ccccc1)c1ccccc1` was inactive: 2.59%.
The value for `COC(=O)C1(C)COP(=O)(NCc2ccccc2)OC1` (centres undefined) was inactive: 0.76%.
